{"source": "paper PMC4803553", "about": "(Endocrinology and Metabolism, 2016)", "origin": "cited, not measured here", "conditions": "cited from earlier work", "data": [{"smiles": "N#C[C@@H]1CCCN1C(=O)CNC12CC3CC(CC(O)(C3)C1)C2", "note": "[Vildagliptin, vildagliptin]", "values": [{"measurement": "Fraction of the drug excreted as a metabolite through the kidneys", "result": "about two-thirds"}]}]}
